Laboratory results from PMC4894417, “Quantitative High-Throughput Profiling of Environmental Chemicals and Drugs that Modulate Farnesoid X Receptor” (Scientific Reports, 2014).
Entries after “also recorded” stand apart in the source; their conditions may differ.

By UniProt entry, the sequences of proteins in these tests, tags left out. Chains listed by the source or under a name are the forms on record and can include a tag or linker.
UniProt Q96RI1, with tags, fused parts or gaps limits assumed: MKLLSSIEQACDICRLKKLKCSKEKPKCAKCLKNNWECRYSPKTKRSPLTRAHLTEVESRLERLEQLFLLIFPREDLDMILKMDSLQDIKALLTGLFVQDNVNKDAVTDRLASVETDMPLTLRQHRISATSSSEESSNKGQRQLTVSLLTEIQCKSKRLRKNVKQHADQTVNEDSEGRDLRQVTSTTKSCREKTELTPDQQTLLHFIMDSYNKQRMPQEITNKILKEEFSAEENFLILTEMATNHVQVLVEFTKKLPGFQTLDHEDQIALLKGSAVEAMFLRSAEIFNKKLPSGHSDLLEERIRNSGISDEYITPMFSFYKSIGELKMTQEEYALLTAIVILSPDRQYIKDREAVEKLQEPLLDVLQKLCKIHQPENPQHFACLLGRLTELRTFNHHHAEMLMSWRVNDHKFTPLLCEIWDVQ

Columns and labels:
[1] = target: T1, human FXR (Homo sapiens, UniProt Q96RI1); assay: FXR-bla reporter gene assay, agonist mode (qHTS)
[2] = target: T1, human FXR; assay: FXR-bla reporter gene assay, antagonist mode (CDCA-induced transactivation)

CCOC(=O)C1=C(C)NC(C)=C(C(=O)OC)C1c1cccc(Cl)c1Cl (stereo not drawn) [Felodipine]
FXR agonist activity [1]: activated; also recorded: an agonist | FXR agonist mode Efficacy [1]: 30 ± 9 | FXR antagonist mode IC50 [2]: Inactive

C[C@]12CC[C@@H]3c4ccc(O)cc4C[C@@H](CCCCCCCCC[S+]([O-])CCCC(F)(F)C(F)(F)F)[C@H]3[C@@H]1CC[C@@H]2O (stereo partly drawn) [Fulvestrant]
FXR agonist mode EC50 [1]: Inactive | FXR antagonist mode Efficacy [2]: 50 ± 27

CC(=O)[C@]1(O)Cc2c(O)c3c(c(O)c2[C@@H](O[C@H]2C[C@H](N)[C@H](O)[C@H](C)O2)C1)C(=O)c1ccccc1C3=O [Idarubicin]
IC50 [2]: 4.07 ± 0.28 µM
